Experiments:
[1] = system: murine STAM™ model of NASH-HCC; test: Murine STAM model of NASH-HCC, second study (Example 2): H&E NAFLD activity scoring and Sirius red fibrosis area; type: in vivo, C57BL/6 mice; conditions: once daily oral, 6 to 9 weeks of age, Bromantane high 40 mg/kg, Telmisartan 10 mg/kg
Method: As before, male newborn C57BL/6 mice were used. All mice were born from pathogen-free 14 day-pregnant mice obtained from Japan SLC, Inc. (Hamamatsu, Japan) prior to the start of the study.
(§1) The murine STAM™ model of NASH-HCC was performed according to previously described methods known in the art (Takakura et al, Characterization of non-alcoholic steatohepatitis, Anticancer Res, 34(9):4849-55 (2014); Fujii et al, (2013)). NASH was induced in male mice by a single subcutaneous injection of 200 μg of streptozotocin (STZ, Sigma, Mo., USA) at 2 days after birth and continuous feeding after 4 weeks of age (day 28±2) with a high fat diet (CLEA Japan Inc, Tokyo, Japan) given ad libitum.
Following induction of NASH, the mice were randomized into 7 individual study groups of 8 mice each at 6 weeks of age (day 42±2) based on their body weight, the day before the start of treatment.
One day following randomization, the mice were administered a once-daily oral treatment from 6 weeks of age plus one day (day 43±2, treatment Day 1) to 9 weeks of age. The mice in 6 of the 7 study groups were treated individually with a therapeutic amount of a pharmacologic compound formulated with a pharmaceutically acceptable vehicle. […] The pharmaceutically acceptable vehicle in all groups was 0.5% CMC. […] Individual body weight was measured daily during the treatment period. Survival, clinical signs and behavior of mice were also monitored daily.
In each case, a volume of 10 mL/kg of 0.5% CMC was administered orally with (or without) the active ingredient as noted in Table 3 from 6 to 9 weeks of age. […]
The liver cross-sections of the treated groups were also subjected to Sirius-red staining using standard techniques for histological estimation of the percentage of fibrosis area. For quantitative analysis of fibrosis area, bright field images of Sirius red-stained sections were captured around the central vein using a digital camera (DFC295; Leica, Germany) at 200-fold magnification, and the positive areas in 5 fields/section were measured using ImageJ software (National Institute of Health, USA). […]

[2] = system: murine STAM™ model of NASH-HCC; test: Murine STAM model of NASH-HCC, first study (Example 1): H&E NAFLD activity scoring and Sirius red fibrosis area; type: in vivo, C57BL/6 mice
Method: Male newborn C57BL/6 mice were used. All mice were born from pathogen-free 14 day-pregnant mice obtained from Japan SLC, Inc. (Hamamatsu, Japan) prior to the start of the study.
as §1
Following induction of NASH, the mice were randomized into 12 individual study groups of 8 mice each at 6 weeks of age (day 42±2) based on body weight, the day before the start of treatment.
One day following randomization, the mice were administered a once-daily oral treatment from 6 weeks of age plus one day (day 43±2, treatment Day 1) to 9 weeks of age (hereinafter known as the “treatment period”). The mice in 11 of the 12 study groups (hereafter known as “treatment groups”) were treated individually with a distinct pharmacologic compound formulated with a pharmaceutically acceptable vehicle. […] The pharmaceutically acceptable vehicle in all groups was 0.5% carboxymethyl cellulose (CMC). […] Individual body weight was measured daily during the treatment period. Survival, clinical signs and behavior of mice were also monitored daily.
In each case, a volume of 10 mL/kg of 0.5% CMC was administered orally with (or without) the active ingredient as noted in Table 1 from 6 to 9 weeks of age until sacrifice. […]
For quantitative analysis of fibrosis area, bright field images of Sirius red-stained sections were captured around the central vein using a digital camera (DFC295; Leica, Germany) at 200-fold magnification, and the positive areas in 5 fields/section were measured using ImageJ software (National Institute of Health, USA). […]

[3] = once daily oral, 6 to 9 weeks of age, Bromantane 20 mg/kg, Istradefylline 18 mg/kg, Telmisartan 10 mg/kg

Compound: CCCc1nc2c(C)cc(-c3nc4ccccc4n3C)cc2n1Cc1ccc(-c2ccccc2C(=O)O)cc1 [Telmisartan, 2-(4-{[4-Methyl-6-(1-methyl-1H-1,3-benzodiazol-2-yl)-2-propyl-1H-1,3-benzodiazol-1-yl]methyl}phenyl)benzoic acid]
- fibrosis area (Sirius red-positive area) compared with the Vehicle group ([1]; Bemithyl 200 mg/kg, Cenicriviroc 30 mg/kg): tended to decrease
- NAFLD activity score relative to Vehicle control ([1]; Cenicriviroc 30 mg/kg, Bemithyl 200 mg/kg): Statistically significant reductions
- steatosis score relative to Vehicle control [1]: Statistically significant reductions
- NAFLD Activity Scores, hepatic steatosis, lobular inflammation and hepatocellular ballooning (conclusion) ([2]; Istradefylline at 18 mg/kg, Telmisartan at 10 mg/kg oral, compared to the Vehicle group): showed improvement
- NAFLD activity score relative to Vehicle control [2, 3]: Statistically significant reductions
- fibrosis area (Sirius red-positive area) compared with the Vehicle group [2, 3]: tended to decrease

From US11744808B2, “Compositions and methods for treating non-alcoholic steatohepatitis” (ALGERNON PHARMACEUTICALS INC., priority 2018, dated 2023)
